PubChem BioAssay AID1347071 (National Center for Advancing Translational Sciences (NCATS), 2019)
“And” between values parts separate entries of the source, which are not always exact repeats. Equal values may be shown once. The list shows a part of the results, in another mix than the full data. Some of these compounds have results that are not shown, active ones among them. The source made the active and inactive calls. The call rests on the fitted dose curve; in most records, active means well fitted activation curve with a large enough effect; inconclusive means small, poorly fitted or top-dose-only effect; inactive means no such curve, though single readings can be large or run the other way.

Assay: qHTS for compounds that reverse cellular toxicity of Amyloid beta (A-beta) peptide in yeast: Primary Screen; further: nearly all actives have a fitted effect of over 55% in size
Settings: yeast expressing A-beta42, growth rescue, OD600, 48 h, 0% DMSO, 100% iron-clioquinol control; at 46.1 µM (top of the series)
From the text: The A-beta peptide is produced by the processing of the amyloid precursor protein (APP) by two proteases, beta and gamma secretases. […] A-beta42 is regarded as the most amyloidogenic form due to its hydrophobicity; however, precisely how A-beta42 induces neurotoxicity is unclear. To understand further this biology and its potential therapeutic implications for human neurodegenerative disease, a quantitative high-throughput screen for compounds that reverse the cellular toxicity of the A-beta peptide was developed. A yeast based screen was used because it recapitulates the salient feature of protein mis-folding disorder accurately. This cell-based phenotypic screen provides a significant, unbiased advantage by letting the compounds and models inform us which proteins or pathways are most relevant. The ideal chemical candidates would therefore have activity in both our primary yeast and secondary neuronal toxicity assays, as well as in mouse models. They will be valuable tools for dissecting diverse protein homeostasis pathologies and could potentially become the focus for future pre-clinical development. For this luminescence assay, inhibition of A-beta rescues the toxic effect in the yeast cell, resulting in increase of signals and the desired phenotype of "Activator". This screen is run against the Molecular Libraries Small Molecule Repository (MLSMR) and the NCGC Sytravon Library Collection.
NIH Chemical Genomics Center [NCGC]
NIH Molecular Libraries Probe Centers Network [MLPCN]
Assay Submitter (PI): Susan Lindquist, Whitehead Institute, Massachusetts Institute of Technology
[1] Vassar R,et al (1999). Beta-secretase cleavage of Alzheimer's amyloid precursor protein by the transmembrane aspartic protease BACE. Science. 286: 735-741.
[2] Yan R, et al (1999). Membrane-anchored aspartyl protease with Alzheimer's disease beta-secretase activity. Nature. 402: 533-536.
Two and a half microliter / well of yeast growth medium were dispensed in a 1536 assay plate. Compounds were pinned using the Kalypsys robotic system followed by addition of 2.5 uL / well yeast solution. The assay plates were incubated at 30 C. After 48 hr, the absorbance signal at 600 nm was obtained using the PerkinElmer ViewLux plate reader to assess yeast growth. The data was normalized to the positive control of an equimolar mixture of ferric chloride (FeCl3) and clioquinol and to the negative control DMSO.
In the case of `COc1cc(C(=O)NCC2(N(C)C)CCCCC2)c([N+](=O)[O-])cc1OC`, the growth rescue is reported as inactive: -2.23%.
For `CN(C)C1(CNC(=O)c2ccc(Br)cc2)CCCCC1`, the growth rescue was inactive: -13.7%.
With `O=C(NCC1(N2CCCCC2)CCCCC1)c1cccc(Cl)c1` the growth rescue was inactive: -2.93%.
With `COc1ccc(Cl)cc1C(=O)NCC1(N(C)C)CCCCC1` the growth rescue was inactive: -10.5%.
With `COc1cccc(C(=O)NCC2(N3CCCCC3)CCCCC2)c1` the growth rescue was inactive: -19.7%.
For `COc1ccc(C(=O)NCC2(N(C)C)CCCCC2)cc1Cl`, the growth rescue was inactive: -10%.
In the case of `CC(C)COc1ccc(C(=O)NCC2(N(C)C)CCCCC2)cc1`, the growth rescue is reported as inactive: -9.87%.
In the case of `COc1cccc(C(=O)NCC2(N3CCOCC3)CCCCC2)c1`, the growth rescue is reported as inactive: -14.4%.
For `O=C(OC1CN2CCC1CC2)C(CO)(c1ccccc1)c1ccccc1` (stereo unspecified), the growth rescue was inactive: 24.7%.
For `O=C(OCCN1CCCC1)C(O)(c1ccccc1)c1ccccc1`, the growth rescue was inactive: 0.272%.
With `CC(C)Oc1ccc(C(=O)NCC2(N(C)C)CCCCC2)cc1` the growth rescue was inactive: -9.47% and inactive: 0.296%.
In the case of `CN(C)c1cccc(C(=O)NCC2(N(C)C)CCCCC2)c1`, the growth rescue is reported as inactive: 1.28%.
For `C=C(C)C#CC(O)(C(=O)OC1CCN(C)CC1)c1ccccc1` (stereo unspecified), the growth rescue was inactive: -18%.
In the case of `COc1ccc(Br)c(C(=O)NCC2(N3CCCCC3)CCCCC2)c1`, the growth rescue is reported as inactive: -11.5%.
In the case of `Cc1cccc(C(=O)NCC2(N(C)C)CCCCC2)c1`, the growth rescue is reported as inactive: -6.07%.
With `COc1cc(C(=O)NCC2(N(C)C)CCCCC2)cc(OC)c1OC` the growth rescue was inactive: -9%.
For `CN1[C@@H]2CC[C@H]1CC(OC(=O)C(O)(c1ccccc1)c1ccccc1)C2` (stereo partly specified), the growth rescue was inactive: -7.23%.
In the case of `O=C(NCC1(N2CCCCC2)CCCCC1)c1cc([N+](=O)[O-])ccc1Cl`, the growth rescue is reported as inactive: -2.62%.
With `Cc1ccc(C(=O)NCC2(N3CCCCC3)CCCCC2)cc1` the growth rescue was inactive: -23.8%.
With `CN(C)C1(CNC(=O)c2ccccc2F)CCCCC1` the growth rescue was inactive: -12.8%.
With `COc1cc(SC)ccc1C(=O)NCC1(N(C)C)CCCCC1` the growth rescue was inactive: -8.85%.
In the case of `CN(C)C1(CNC(=O)c2cccc(Cl)c2)CCCCC1`, the growth rescue is reported as inactive: -8.23%.
With `CCN(CC)CC(C)C(C)OC(=O)C(O)(c1ccccc1)c1ccccc1` (stereo unspecified) the growth rescue was inactive: -4.04%.
With `CC(C)N1C(=O)CC2(CCN(CCOC(=O)C(O)(c3ccccc3)c3ccccc3)CC2)C1=O` the growth rescue was inactive: 12.1%.
In the case of `CCCCOc1ccccc1C(=O)NCC1(N(C)C)CCCCC1`, the growth rescue is reported as inactive: -20.3%.
For `CN(C)c1ccc(C(=O)NCC2(N(C)C)CCCCC2)cc1`, the growth rescue was inactive: -5.35%.
For `CN(C)C1CCCC1OC(=O)C(O)(c1ccccc1)c1ccccc1` (stereo unspecified), the growth rescue was inactive: -9.97%.
In the case of `Cc1ccccc1C(=O)NCC1(N2CCCCC2)CCCCC1`, the growth rescue is reported as inactive: 4.27%.
In the case of `CN(C)C1(CNC(=O)c2ccccc2[N+](=O)[O-])CCCCC1`, the growth rescue is reported as inactive: -13.9%.
In the case of `CCOc1cccc(C(=O)NCC2(N(C)C)CCCCC2)c1`, the growth rescue is reported as inactive: -21.1%.
In the case of `COc1ccc(C(=O)NCC2(N(C)C)CCCCC2)cc1`, the growth rescue is reported as inactive: 3.38%.
With `O=C(NCC1(N2CCCCC2)CCCCC1)c1cccc(Br)c1` the growth rescue was inactive: 6.73%.
With `CCN1CCCC(OC(=O)C2(O)c3ccccc3C=Cc3ccccc32)C1` (stereo unspecified) the growth rescue was inactive: 0.362%.
For `Cc1cc(C(=O)NCC2(N3CCCCC3)CCCCC2)ccc1[N+](=O)[O-]`, the growth rescue was inactive: -1.35%.
With `O=C(NCC1(N2CCCCC2)CCCCC1)c1cc(F)c(F)cc1Cl` the growth rescue was inactive: -8.88%.
With `C=CCN1CCN(CCOC(=O)C(O)(c2ccccc2)c2ccccc2)CC1` the growth rescue was inactive: 10.1%.
